## Binding of CDR-mutated scFvs to a peptide of the spike HR2 region

The target is the same throughout: PDVDLGDISGINAS, from the HR2 region of SARS-CoV-2 spike.

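The parent was found by panning a naive human phage display library on the peptide. In library AAYL51, one, two or three CDR residues were substituted; doubles and triples were drawn at random. Affinity was read by AlphaSeq, a pooled yeast mating assay with surface-displayed partners. Mating (16 h, 30 °C) was followed by selection of diploids and sequencing of their barcodes. Scores were corrected for input abundance and mapped to Kd with protein pairs of known affinity run in the same pool. Mating was done three times.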

Parent scFv Ab-91: VL joined to VH by a 15-residue (Gly4Ser)3 linker. Changes lie in the heavy chain CDRs alone.
VL: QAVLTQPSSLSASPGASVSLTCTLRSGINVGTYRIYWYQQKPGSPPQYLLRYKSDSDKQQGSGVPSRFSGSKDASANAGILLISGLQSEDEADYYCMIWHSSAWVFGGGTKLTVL
VH: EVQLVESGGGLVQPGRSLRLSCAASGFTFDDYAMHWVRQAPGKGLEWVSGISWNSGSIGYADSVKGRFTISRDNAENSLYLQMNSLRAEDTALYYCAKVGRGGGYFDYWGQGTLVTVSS

Variants are written as CDR1, CDR2 and CDR3 of the heavy chain (limits as in the source). Parent: GFTFDDYAMH, GISWNSGSIGYADSVK, VGRGGGYFDY.
Numbers give log10(Kd / nM), so 0 is 1 nM and 3 is 1 µM. Smaller is tighter.
Replicates are averaged; those with no signal do not enter the mean.
A pair that was not seen in that replicate is written "n.d."; this usually means weak binding, but a binder can also be missed.
Parent in this assay: reference entry 1.86, copy in this library 0.88.

CDR-H1 | CDR-H2 | CDR-H3 | replicates, log10 nM | mean, log10 nM | signal with controls
GFTFDDYAMH | YISWNSGSIGYADSVQ | VGRGGGYFKY | n.d. n.d. n.d. | n.d. | 1 of 9 (4.32)
GFTFDDYAMH | GISWNSMSIGYADSVK | VGRGGGYFDY | n.d. n.d. n.d. | n.d. | 0 of 9
GQTFDDYAMH | GISWNSGSIGYADSVK | VGRRGGWFDY | n.d. n.d. n.d. | n.d. | 1 of 9 (3.58)
GFTFDDYAMH | GQSWNSGSIGTADSVK | VGEGGGYFDY | n.d. n.d. 5.02 | 5.02 | 6 of 9 (4.69)
FFTFDDYAMH | GISWWSGSIGYADIVK | VGRGGGYFDY | 4.25 4.90 n.d. | 4.57 | 7 of 9 (5.34)
GFTFDDYAMH | GITWNSGSIGYADSVK | VMRYGGYFDY | 3.88 3.38 3.66 | 3.64 | 2 of 9 (3.97)
GFTFDDYAME | GISWNSGSIQYADSVK | VGRGGGYTDY | n.d. n.d. n.d. | n.d. | 0 of 9
GFTFDDYAMH | SISWNSHSIGYADSVK | VGRGGGYFIY | 4.81 n.d. 5.26 | 5.04 | 1 of 9 (4.48)
GFTFDDTAMH | GISWNSGSIGYADSVY | VGRGGGYFDY | 1.76 1.67 1.55 | 1.66 | 2 of 9 (4.95)
GFTFDDYAMH | GISWNSLSMGYADSVK | VGRGGGYFDY | 4.70 3.68 3.49 | 3.96 | 2 of 9 (3.37)
GQTFDDYAMH | MISWNSGSIGYADSVK | VGRGAGYFDY | n.d. n.d. n.d. | n.d. | 0 of 9
GFTFDDYAMH | GISWNSGSIVYADSVK | WGRGGHYFDY | n.d. n.d. n.d. | n.d. | 1 of 9 (4.17)
GFTFDDYAMH | GISWNSGQIGYADSVK | VDRGGLYFDY | n.d. 4.65 4.79 | 4.72 | 4 of 9 (4.18)
GFTFDDYAMH | GISWHSGSIGYADSVK | VGRGGGDFDY | 3.78 4.99 3.85 | 4.21 | 3 of 9 (3.72)
GFTFDDYAMH | GISWNSGSFGEADSVK | VGRGGSYFDY | 4.06 n.d. n.d. | 4.06 | 1 of 9 (4.97)
GFTFDDVAMH | EISWNSGSIGYAPSVK | VGRGGGYFDY | n.d. n.d. 5.15 | 5.15 | 2 of 9 (4.32)
GFLFGDYAMH | GISWNSGSWGYADSVK | VGRGGGYFDY | n.d. n.d. n.d. | n.d. | 1 of 9 (2.71)
GFTFDDYAME | GISWNSGSIGYADSVK | VRRGGVYFDY | 4.29 4.86 6.00 | 5.05 | 7 of 9 (5.11)
GFTFDDYAMK | GISWNSGSIGYEDSVK | VGRGGGYFDY | 3.47 n.d. n.d. | 3.47 | 0 of 9
GFTFDDYAMH | GRSWNSGSIGYADSVK | VGRGGNYYDY | n.d. n.d. n.d. | n.d. | 0 of 9
GFTFDDYAMH | GISWNSGSIWYADSVY | VHRGGGYFDY | 4.07 5.42 5.20 | 4.90 | 8 of 9 (4.54)
GFTFDDYAMH | GISWNSTSIGYADSCK | VGRGGEYFDY | 5.29 n.d. 4.74 | 5.01 | 4 of 9 (4.75)
GFTFDNYAMH | TISNNSGSIGYADSVK | VGRGGGYFDY | 4.58 6.60 n.d. | 5.59 | 3 of 9 (5.31)
GFTFDDYAMH | LISWNSGSIGYADMVK | VGRGGGYFDY | 4.69 n.d. n.d. | 4.69 | 0 of 9
GCTFDDYAMH | GISWNSGSIGYADSVK | VGYGGLYFDY | n.d. n.d. n.d. | n.d. | 0 of 9
GFGFDDYAMH | GISWNKGSRGYADSVK | VGRGGGYFDY | n.d. n.d. n.d. | n.d. | 1 of 9 (4.68)
GFTFDDYAMY | GISWTSHSIGYADSVK | VGRGGGYFDY | n.d. n.d. n.d. | n.d. | 0 of 9
GFTFDDYAMH | GISWNSGSINYPKSVK | VGRGGGYFDY | 4.69 n.d. n.d. | 4.69 | 5 of 9 (4.36)
GFNFDDLANH | GISWNSGSIGYADSVK | VGRGGGYFDY | n.d. n.d. n.d. | n.d. | 1 of 9 (3.31)
GFTGDDYAMH | GISLNSGSIGYADSVK | VGRFGGYFDY | n.d. 4.66 n.d. | 4.66 | 4 of 9 (4.03)
GFNFDDYAMH | GISWNSGSIGYAIWVK | VGRGGGYFDY | 2.71 2.22 2.30 | 2.41 | 3 of 9 (4.44)
GFTFTDYAMH | GISLNSKSIGYADSVK | VGRGGGYFDY | 1.93 1.80 1.41 | 1.71 | 2 of 9 (4.15)
GFTFDDCAMH | GISWNSGSIGYADSVK | VGRGGGYFDY | n.d. n.d. n.d. | n.d. | 0 of 9

The opening 4 entries, copied out:

{"CDR-H1": "GFTFDDYAMH", "CDR-H2": "YISWNSGSIGYADSVQ", "CDR-H3": "VGRGGGYFKY", "replicates, log10 nM": "n.d. n.d. n.d.", "mean, log10 nM": "n.d.", "signal with controls": "1 of 9 (4.32)"}
{"CDR-H1": "GFTFDDYAMH", "CDR-H2": "GISWNSMSIGYADSVK", "CDR-H3": "VGRGGGYFDY", "replicates, log10 nM": "n.d. n.d. n.d.", "mean, log10 nM": "n.d.", "signal with controls": "0 of 9"}
{"CDR-H1": "GQTFDDYAMH", "CDR-H2": "GISWNSGSIGYADSVK", "CDR-H3": "VGRRGGWFDY", "replicates, log10 nM": "n.d. n.d. n.d.", "mean, log10 nM": "n.d.", "signal with controls": "1 of 9 (3.58)"}
{"CDR-H1": "GFTFDDYAMH", "CDR-H2": "GQSWNSGSIGTADSVK", "CDR-H3": "VGEGGGYFDY", "replicates, log10 nM": "n.d. n.d. 5.02", "mean, log10 nM": "5.02", "signal with controls": "6 of 9 (4.69)"}

Nonspecific signal, from three strains lacking the peptide, appeared in 21% of pairings of library AAYL51, centred on 4.54 (5% of these signals below 3.26); values are not corrected for it. For each scFv, signals with the empty controls are counted beside the result, with their mean in brackets.

From the AlphaSeq antibody data of Engelhart et al. 2022 (doi:10.1038/s41597-022-01779-4), copy in the FLAb collection.